Experimental data published in PubChem BioAssay (Tox21).
Where “and” joins values, the source holds several entries; their conditions need not be identical. Identical values can stand only once. The list shows a part of the results, in another mix than the full data. Inconclusive results are not listed. Calls of active or inactive are those of the source. The call rests on the fitted dose curve; in most records, active means well fitted curve in the direction sought with a large enough effect in the repeat runs; inconclusive means weak or mixed curves; inactive means no such curve, though single readings can be large; an effect the other way counts as inactive or inconclusive.

Key:
[1] = qHTS RealTime-Glo MT Cell Viability Assay in HepG2 cells - 40 hour (AID 1224870); conditions: RealTime-Glo luminescence; at 76.8 µM (top of the series) unless noted; further: nearly all actives have a fitted effect of over 50% in size
In short: (§1)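 HepG2 cells mixed with RealTime-Glo MT reagents (NanoLuc plus cell-permeant prosubstrate) were seeded at 600 cells/well, incubated 5 h at 37 C/5% CO2, then pinned with compounds in DMSO; nonlytic luminescence tracked viability during 40 h treatment.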

[2] = A CellTox Green Cytotoxicity Assay to monitor cytotoxicity in HEK293 cells - 40 hour (AID 1224871); conditions: CellTox Green fluorescence; at 76.8 µM (top of the series) unless noted; further: nearly all actives have a fitted effect of over 45% in size
In short: (§2)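 Tox21 screen in HEK293: membrane-impermeant cyanine dye fluoresces on binding dead-cell DNA; compound pinned 5 h post-seeding, plates held at 37 C, signal read repeatedly through 40 h.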

[3] = qHTS RealTime-Glo MT Cell Viability Assay in HEK293 cells - 16 hour (AID 1224872); conditions: RealTime-Glo luminescence; at 76.8 µM (top of the series) unless noted; further: top concentration of the series differs between compounds; nearly all actives have a fitted effect of over 50% in size
In short: (§3)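 Homogeneous bioluminescent viability format in HEK293 cells (600 cells/well). Following 5 h at 37 C/5% CO2, 23 nL compound was pintooled; the signal was measured repeatedly during 40 h incubation.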

[4] = qHTS RealTime-Glo MT Cell Viability Assay in HepG2 cells - 8 hour (AID 1224873); conditions: RealTime-Glo luminescence; at 76.8 µM (top of the series) unless noted; further: nearly all actives have a fitted effect of over 55% in size
In short: as §1

[5] = qHTS RealTime-Glo MT Cell Viability Assay in HEK293 cells - 40 hour (AID 1224874); conditions: RealTime-Glo luminescence; max response: hits give low values; further: nearly all actives have a fitted effect of over 50% in size; further: potency means the concentration at half of the fitted maximal effect
In short: (§4)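 HEK293 + NanoLuc + prosubstrate, 600 cells/well; 5 h, 37 C/5% CO2; compound 23 nL in DMSO by pintool; 37 C; luminescence read at 0, 8, 16, 24, 32 and 40 h time points.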

[6] = A CellTox Green Cytotoxicity Assay to monitor cytotoxicity in HEK293 cells - 24 hour (AID 1224875); conditions: CellTox Green fluorescence, hits give high values; at 76.8 µM (top of the series) unless noted; further: nearly all actives have a fitted effect of over 45% in size
In short: as §2

[7] = A CellTox Green Cytotoxicity Assay to monitor cytotoxicity in HepG2 cells - 16 hour (AID 1224876); conditions: CellTox Green fluorescence; at 76.8 µM (top of the series); further: nearly all actives have a fitted effect of over 45% in size
In short: (§5)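 Measurements at 0, 8, 16, 24, 32 and 40 h of treatment captured CellTox Green fluorescence in HepG2 cells that had been co-plated with reagent and preincubated 5 h at 37 C/5% CO2.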

[8] = qHTS RealTime-Glo MT Cell Viability Assay in HepG2 cells - 32 hour (AID 1224877); conditions: RealTime-Glo luminescence; at 76.8 µM (top of the series) unless noted; further: nearly all actives have a fitted effect of over 55% in size
In short: (§6)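 Cell number in HepG2 cultures estimated from NanoLuc luminescence generated by metabolic reduction of a prosubstrate by living cells. The homogeneous, nonlytic format allowed repeated reads at 0, 8, 16, 24, 32 and 40 h of compound exposure.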

[9] = A CellTox Green Cytotoxicity Assay to monitor cytotoxicity in HepG2 cells - 24 hour (AID 1224878); conditions: CellTox Green fluorescence; at 76.8 µM (top of the series); further: nearly all actives have a fitted effect of over 45% in size
In short: as §5

[10] = A CellTox Green Cytotoxicity Assay to monitor cytotoxicity in HepG2 cells - 40 hour (AID 1224879); conditions: CellTox Green fluorescence; at 76.8 µM (top of the series) unless noted; further: nearly all actives have a fitted effect of over 40% in size
In short: as §5

[11] = qHTS RealTime-Glo MT Cell Viability Assay in HEK293 cells - 0 hour (AID 1224880); conditions: RealTime-Glo luminescence; at 76.8 µM (top of the series) unless noted
In short: as §4

[12] = A CellTox Green Cytotoxicity Assay to monitor cytotoxicity in HEK293 cells - 32 hour (AID 1224881); conditions: CellTox Green fluorescence; at 76.8 µM (top of the series) unless noted; further: nearly all actives have a fitted effect of over 40% in size
In short: as §2

[13] = A CellTox Green Cytotoxicity Assay to monitor cytotoxicity in HepG2 cells - 0 hour (AID 1224882); conditions: CellTox Green fluorescence; at 76.8 µM (top of the series); further: nearly all actives have a fitted effect of over 35% in size
In short: as §5

[14] = A CellTox Green Cytotoxicity Assay to monitor cytotoxicity in HepG2 cells - 32 hour (AID 1224883); conditions: CellTox Green fluorescence; at 76.8 µM (top of the series); further: nearly all actives have a fitted effect of over 50% in size
In short: as §5

[15] = A CellTox Green Cytotoxicity Assay to monitor cytotoxicity in HEK293 cells - 8 hour (AID 1224884); conditions: CellTox Green fluorescence; at 76.8 µM (top of the series) unless noted; further: nearly all actives have a fitted effect of over 35% in size
In short: as §2

[16] = qHTS RealTime-Glo MT Cell Viability Assay in HepG2 cells - 16 hour (AID 1224885); conditions: RealTime-Glo luminescence; at 76.8 µM (top of the series) unless noted; further: nearly all actives have a fitted effect of over 50% in size
In short: as §6

[17] = qHTS RealTime-Glo MT Cell Viability Assay in HEK293 cells - 24 hour (AID 1224886); conditions: RealTime-Glo luminescence; at 76.8 µM (top of the series) unless noted
In short: as §3

[18] = qHTS RealTime-Glo MT Cell Viability Assay in HEK293 cells - 8 hour (AID 1224887); conditions: RealTime-Glo luminescence; at 76.8 µM (top of the series) unless noted
In short: as §4

[19] = A CellTox Green Cytotoxicity Assay to monitor cytotoxicity in HEK293 cells - 16 hour (AID 1224888); conditions: CellTox Green fluorescence, hits give high values; at 76.8 µM (top of the series) unless noted; further: nearly all actives have a fitted effect of over 35% in size
In short: as §2

[20] = qHTS RealTime-Glo MT Cell Viability Assay in HepG2 cells - 0 hour (AID 1224889); conditions: RealTime-Glo luminescence; at 76.8 µM (top of the series) unless noted; further: nearly all actives have a fitted effect of over 50% in size
In short: as §6
On the % scale 0 is the no-effect control and ±100 the full control effect.

CC(C)OP(OC(C)C)OC(C)C
inactive: activity change, negative = cytotoxic [1] -1.45% | cytotoxicity increase [2] 4.12% | activity change, negative = cytotoxicity [3] -4.09% | viability change, negative = cytotoxic [4] 1.37% | max response [5] -4.15% | activity change [6] 10.2% | cytotoxicity increase [7] -0.808% | activity change, negative = cytotoxic [8] -0.091% | cytotoxicity [9] 0.786% | cytotoxicity increase [10] 1.12% | activity change, negative = cytotoxicity [11] 0.42% | cytotoxicity increase [12] 9.72% | cytotoxicity [13] 7.34% | cytotoxicity increase [14] 0.418% | cytotoxicity increase [15] 9.78% | activity change, negative = cytotoxic [16] 0.875% | activity change, negative = cytotoxicity [17] -4.92% | activity change, negative = cytotoxicity [18] -2.34% | activity change [19] 12.8% | activity change, negative = cytotoxicity [20] 6.81%

CCOP(=O)(Cl)Cl
inactive: activity change, negative = cytotoxic [1] 1.78% and 1.87% | cytotoxicity increase [2] -7.46% and -18.1% | activity change, negative = cytotoxicity [3] -1.28% | viability change, negative = cytotoxic [4] -6.45% and -1.15% | activity change [6] -11.9% and -13% | cytotoxicity increase [7] -6.68% and -10.5% | activity change, negative = cytotoxic [8] 1.16% and 0.008% | cytotoxicity [9] -7.22% and -11.5% | cytotoxicity increase [10] -9.71% and -11.5% | activity change, negative = cytotoxicity [11] 5.67% and -2.82% | cytotoxicity increase [12] -10.2% and -13.5% | cytotoxicity [13] -1.22% and -0.241% | cytotoxicity increase [14] -9.18% and -9.55% | cytotoxicity increase [15] -12.6% and -8.47% | activity change, negative = cytotoxic [16] -0.116% and -0.105% | activity change, negative = cytotoxicity [17] 12.2% | activity change, negative = cytotoxicity [18] -2.58% and -19.3% | activity change [19] -12.1% and -13.9% | activity change, negative = cytotoxicity [20] -10.9% and -10.1%
active: Potency [5] 21.9 µM

CCOP(=S)(Cl)OCC
inactive: activity change, negative = cytotoxic [1] -9.37% | cytotoxicity increase [2] 11.4% | activity change, negative = cytotoxicity [3] 17.1% | viability change, negative = cytotoxic [4] 2.81% | max response [5] 3.57% | activity change [6] 2.75% | cytotoxicity increase [7] 3.81% | activity change, negative = cytotoxic [8] -12.2% | cytotoxicity [9] 4.85% | cytotoxicity increase [10] 2.82% | activity change, negative = cytotoxicity [11] 1.41% | cytotoxicity increase [12] 7.52% | cytotoxicity [13] 0.0211% | cytotoxicity increase [14] 4.87% | cytotoxicity increase [15] 6.07% | activity change, negative = cytotoxic [16] 0.243% | activity change, negative = cytotoxicity [17] 13.8% | activity change, negative = cytotoxicity [18] 3.16% | activity change [19] 2.57% | activity change, negative = cytotoxicity [20] -7.26%

CCC(=O)N(c1ccccc1)C1CCNCC1
inactive: activity change, negative = cytotoxic [1] 1.07% [at 35.3 µM] | cytotoxicity increase [2] -16.1% [at 35.3 µM] | activity change, negative = cytotoxicity [3] 3.76% [at 35.3 µM] | viability change, negative = cytotoxic [4] 9.51% [at 35.3 µM] | max response [5] 2.94% | activity change [6] -10.1% [at 35.3 µM] | activity change, negative = cytotoxic [8] -0.605% [at 35.3 µM] | cytotoxicity increase [10] 27% [at 35.3 µM] | activity change, negative = cytotoxicity [11] -0.491% [at 35.3 µM] | cytotoxicity increase [12] -12.9% [at 35.3 µM] | cytotoxicity increase [15] -6.63% [at 35.3 µM] | activity change, negative = cytotoxic [16] 8.57% [at 35.3 µM] | activity change, negative = cytotoxicity [17] 2.22% [at 35.3 µM] | activity change, negative = cytotoxicity [18] 10.1% [at 35.3 µM] | activity change [19] -7.94% [at 35.3 µM] | activity change, negative = cytotoxicity [20] 2.14% [at 35.3 µM]
